Assay results from article PMC2008813 (British Journal of Cancer, 1973).

Target: T1, glucocorticoid receptor (Rattus norvegicus, UniProt P06536)
T1 construct: gene Nr3c1; native receptor in R3230AC tumour cytosol (8-9 S component)
T1 sequence (P06536 1-795): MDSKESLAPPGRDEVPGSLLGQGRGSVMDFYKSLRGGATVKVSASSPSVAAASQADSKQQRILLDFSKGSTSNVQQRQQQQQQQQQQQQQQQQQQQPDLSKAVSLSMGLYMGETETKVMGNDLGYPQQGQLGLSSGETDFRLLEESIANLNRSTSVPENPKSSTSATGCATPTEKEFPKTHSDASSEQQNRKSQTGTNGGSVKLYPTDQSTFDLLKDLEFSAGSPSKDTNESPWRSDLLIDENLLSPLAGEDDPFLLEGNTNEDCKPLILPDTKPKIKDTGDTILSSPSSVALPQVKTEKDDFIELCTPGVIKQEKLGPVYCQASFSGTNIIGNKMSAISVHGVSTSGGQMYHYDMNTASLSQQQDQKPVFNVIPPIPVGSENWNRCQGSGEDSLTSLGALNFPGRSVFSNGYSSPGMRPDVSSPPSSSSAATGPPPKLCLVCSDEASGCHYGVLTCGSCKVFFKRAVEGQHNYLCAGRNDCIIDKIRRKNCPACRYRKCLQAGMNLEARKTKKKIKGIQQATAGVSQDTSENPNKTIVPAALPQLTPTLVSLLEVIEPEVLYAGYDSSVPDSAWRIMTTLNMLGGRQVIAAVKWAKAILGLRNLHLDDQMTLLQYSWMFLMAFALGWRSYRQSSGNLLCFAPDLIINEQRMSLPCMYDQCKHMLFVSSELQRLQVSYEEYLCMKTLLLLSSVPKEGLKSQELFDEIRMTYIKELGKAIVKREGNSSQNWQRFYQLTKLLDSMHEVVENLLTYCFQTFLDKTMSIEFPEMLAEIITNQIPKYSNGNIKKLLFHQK
Assay: competition with [3H]-triamcinolone acetonide, sucrose gradient centrifugation
Details: read-out: % [3H]-triamcinolone acetonide bound at 1 umol/l

C[C@]12CCC(=O)C=C1CC[C@@H]1[C@@H]2[C@@H](O)C[C@@]2(C)[C@H]1CC[C@]2(O)C(=O)CO [Hydrocortisone]
activity at 1 µM: 41%
